According to ChEMBL document CHEMBL1126121, “Non-prostanoid thromboxane A2 receptor antagonists with a dibenzoxepin ring system. 1” (J Med Chem, 1992):

Tested on: Thromboxane-A synthase (Bos taurus)
Assay: Inhibitory effect against thromboxane A2 synthase from bovine platelets at 10 uM concentration

With `COc1ccccc1C(=O)NCCSC1c2ccccc2COc2ccc(C(=O)O)cc21` (stereo unspecified) the inhibition was 37%.
